# Yeast mating assay 1: variants of the scFv Ab-14

Data: MIT Lincoln Laboratory AlphaSeq set, Engelhart et al. 2022, doi:10.1038/s41597-022-01779-4, as distributed in FLAb.

All variants were tested on one target, the spike HR2 peptide PDVDLGDISGINAS (SARS-CoV-2).

Parent scFv Ab-14: VH joined to VL by three GGGGS repeats. Changes lie in the heavy chain CDRs alone.
VH: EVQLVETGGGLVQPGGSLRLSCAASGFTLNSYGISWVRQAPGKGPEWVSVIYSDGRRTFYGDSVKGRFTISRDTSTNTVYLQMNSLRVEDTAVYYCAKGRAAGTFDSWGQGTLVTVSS
VL: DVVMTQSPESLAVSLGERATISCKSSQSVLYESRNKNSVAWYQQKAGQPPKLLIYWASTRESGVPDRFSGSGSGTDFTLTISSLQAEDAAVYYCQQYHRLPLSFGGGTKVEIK

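Phage display of a naive human antibody library on the peptide gave the parent. The library (AAYL49) carries one to three amino acid substitutions per variant, with no insertions or deletions. In AlphaSeq, yeast of one mating type display the scFv and yeast of the other type display the target. The frequency of each diploid, read from paired DNA barcodes, reflects how well the two displayed proteins bind. A regression on co-assayed BCL2-family reference pairs converts the normalised counts of each replicate to an apparent Kd. Mating was done three times.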

Each variant is given by its three heavy chain CDRs, as the data file delimits them; those of the parent are GFTLNSYGIS, VIYSDGRRTFYGDSVK, GRAAGTFDS. The read-out is the apparent dissociation constant on a log10 scale (nM): the lower, the stronger. Averages over replicates are reported, and they cover detected replicates only. Where no diploid with the target was found in that replicate, the entry reads "ND": below detection, most likely a poor binder, though not proof of it.

{"CDR-H1": "GMTLNSYGIS", "CDR-H2": "EIYSDGRPTFYGDSVK", "CDR-H3": "GRAAGTFDS", "replicates, log10 nM": "ND / ND / ND", "mean, log10 nM": "ND", "control signals": "1 of 9 (4.30)"}
{"CDR-H1": "GFTLNSYGIS", "CDR-H2": "VIYSNGTRTFYGDSVK", "CDR-H3": "GRAACTFDS", "replicates, log10 nM": "ND / ND / ND", "mean, log10 nM": "ND", "control signals": "0 of 9"}
{"CDR-H1": "GFTLNSYGLS", "CDR-H2": "VIYSDGRRTFYGDSVK", "CDR-H3": "GRAADTEDS", "replicates, log10 nM": "ND / 5.40 / ND", "mean, log10 nM": "5.40", "control signals": "2 of 9 (4.15)"}
{"CDR-H1": "GFTLNSYGIS", "CDR-H2": "VIYSDGRRWRYGDSVK", "CDR-H3": "GRTAGTFDS", "replicates, log10 nM": "ND / ND / 5.43", "mean, log10 nM": "5.43", "control signals": "2 of 9 (3.86)"}
{"CDR-H1": "GFTLNSYGIA", "CDR-H2": "TIYSGGRRTFYGDSVK", "CDR-H3": "GRAAGTFDS", "replicates, log10 nM": "ND / ND / ND", "mean, log10 nM": "ND", "control signals": "0 of 9"}
{"CDR-H1": "GFTLNTYGIS", "CDR-H2": "VIYSDSKRTFYGDSVK", "CDR-H3": "GRAAGTFDS", "replicates, log10 nM": "4.13 / 4.21 / 4.24", "mean, log10 nM": "4.19", "control signals": "3 of 9 (4.21)"}
{"CDR-H1": "GFTDNIYGIS", "CDR-H2": "VIYSDGRRTFYGDGVK", "CDR-H3": "GRAAGTFDS", "replicates, log10 nM": "5.89 / 5.33 / ND", "mean, log10 nM": "5.61", "control signals": "1 of 9 (4.35)"}
{"CDR-H1": "GFTLNSYGIS", "CDR-H2": "LIYSDGRRMFYGDSVK", "CDR-H3": "GRAAGTFDS", "replicates, log10 nM": "ND / ND / ND", "mean, log10 nM": "ND", "control signals": "0 of 9"}
{"CDR-H1": "GFCLNSYGIS", "CDR-H2": "VIYSDGRRTFYGDSVN", "CDR-H3": "GRAAGTFDV", "replicates, log10 nM": "1.72 / 1.40 / 1.81", "mean, log10 nM": "1.64", "control signals": "1 of 9 (3.33)"}
{"CDR-H1": "GFTLNSFGIS", "CDR-H2": "VIYSDGGRTFYGDSVK", "CDR-H3": "GRAAGTFDS", "replicates, log10 nM": "ND / ND / ND", "mean, log10 nM": "ND", "control signals": "1 of 9 (4.62)"}
{"CDR-H1": "GFTLNSDYIS", "CDR-H2": "VIYSDGRRTFYGDSVK", "CDR-H3": "GRYAGTFDS", "replicates, log10 nM": "ND / ND / 3.77", "mean, log10 nM": "3.77", "control signals": "4 of 9 (4.32)"}
{"CDR-H1": "GFTLRSYGIS", "CDR-H2": "VIYSSGRRTFYGDSVK", "CDR-H3": "GRAAGTFES", "replicates, log10 nM": "4.09 / ND / ND", "mean, log10 nM": "4.09", "control signals": "5 of 9 (4.40)"}
{"CDR-H1": "GFTLNSFGIS", "CDR-H2": "VIYSDGRRTFYGISVK", "CDR-H3": "GRAAGDFDS", "replicates, log10 nM": "ND / 3.90 / ND", "mean, log10 nM": "3.90", "control signals": "3 of 9 (3.61)"}
{"CDR-H1": "GFTLNSYGIS", "CDR-H2": "VIYSDGRRTNYGDSVK", "CDR-H3": "GRQAGTFDW", "replicates, log10 nM": "ND / ND / ND", "mean, log10 nM": "ND", "control signals": "0 of 9"}
{"CDR-H1": "GFTLNLYGIS", "CDR-H2": "VIYSDGRRTFYGDSVK", "CDR-H3": "GNAAVTFDS", "replicates, log10 nM": "1.97 / 2.02 / 2.64", "mean, log10 nM": "2.21", "control signals": "0 of 9"}
{"CDR-H1": "SFTLNHYGIS", "CDR-H2": "VIYSDGRRTFYGDSVK", "CDR-H3": "ARAAGTFDS", "replicates, log10 nM": "ND / ND / ND", "mean, log10 nM": "ND", "control signals": "0 of 9"}
{"CDR-H1": "GVTLNSYGNS", "CDR-H2": "VIYSDGRRRFYGDSVK", "CDR-H3": "GRAAGTFDS", "replicates, log10 nM": "ND / ND / ND", "mean, log10 nM": "ND", "control signals": "1 of 9 (4.26)"}
{"CDR-H1": "GFTLNSYGII", "CDR-H2": "VIYSDGRRTFWGDSWK", "CDR-H3": "GRAAGTFDS", "replicates, log10 nM": "ND / ND / ND", "mean, log10 nM": "ND", "control signals": "0 of 9"}
{"CDR-H1": "GFTLNSYGGS", "CDR-H2": "VIYYDGRRTFYGDSVK", "CDR-H3": "GRAAGQFDS", "replicates, log10 nM": "ND / ND / ND", "mean, log10 nM": "ND", "control signals": "0 of 9"}
{"CDR-H1": "GFTLCSYGIK", "CDR-H2": "VIYSDGRRTFYGDSVK", "CDR-H3": "GRAAGTFGS", "replicates, log10 nM": "4.44 / ND / ND", "mean, log10 nM": "4.44", "control signals": "0 of 9"}

The 3 strongest on average among those seen in every replicate, once more:

{"CDR-H1": "GFCLNSYGIS", "CDR-H2": "VIYSDGRRTFYGDSVN", "CDR-H3": "GRAAGTFDV", "replicates, log10 nM": "1.72 / 1.40 / 1.81", "mean, log10 nM": "1.64", "control signals": "1 of 9 (3.33)"}
{"CDR-H1": "GFTLNLYGIS", "CDR-H2": "VIYSDGRRTFYGDSVK", "CDR-H3": "GNAAVTFDS", "replicates, log10 nM": "1.97 / 2.02 / 2.64", "mean, log10 nM": "2.21", "control signals": "0 of 9"}
{"CDR-H1": "GFTLNTYGIS", "CDR-H2": "VIYSDSKRTFYGDSVK", "CDR-H3": "GRAAGTFDS", "replicates, log10 nM": "4.13 / 4.21 / 4.24", "mean, log10 nM": "4.19", "control signals": "3 of 9 (4.21)"}

As a blank, each scFv also met three strains without target: over library AAYL49, 15% of these pairings were detected, typically at 4.06 and seldom below 2.83. The control count says in how many pairings with the empty strains this scFv gave a signal, with their mean in brackets.